AlphaSeq binding of Ab-95 light chain variants to a spike HR2 peptide

Target peptide (SARS-CoV-2 spike, HR2 region): PDVDLGDISGINAS

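The parent was found by panning a naive human phage display library on the peptide. Library AAYL52 holds single substitutions and randomly drawn double and triple substitutions in the CDRs. The assay is AlphaSeq: two haploid yeast populations carry antibody and antigen on their surface. Pairs that bind mate more often; barcode pairs of the diploids are counted by sequencing. Read counts were normalised to the haploid input and turned into Kd by a linear fit to BCL2-family pairs of known affinity, for each replicate. Mating was done three times.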

Parent: Ab-95, a human scFv built as VH, three GGGGS repeats, VL. Only the CDRs of the light chain vary.
VH: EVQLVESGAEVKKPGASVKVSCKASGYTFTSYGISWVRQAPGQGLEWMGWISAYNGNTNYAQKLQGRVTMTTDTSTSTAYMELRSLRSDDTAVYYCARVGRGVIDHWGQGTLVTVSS
VL: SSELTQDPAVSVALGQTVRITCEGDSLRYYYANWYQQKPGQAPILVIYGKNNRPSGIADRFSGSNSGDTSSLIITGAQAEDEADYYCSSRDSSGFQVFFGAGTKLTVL

Variants are written as CDR1, CDR2 and CDR3 of the light chain (limits as in the source). Parent: EGDSLRYYYAN, GKNNRPS, SSRDSSGFQVF.
This list gathers variants with a substitution at Y31 (VL, numbered from residue 1).
Numbers give log10(Kd / nM), so 0 is 1 nM and 3 is 1 µM. Smaller is tighter.
An entry "nd" has no value in the source: the pair was not observed among the diploids in that replicate. This suggests poor binding but is not conclusive.

The variant EGDSLRYYFAN / GKNNRDS / SSRDSSGFQVF showed 3.02, 2.61, 2.68 (controls 3 of 9). The variant YGDSLRYYFAN / GKNNRPR / SSRDSSGFQVF gave 2.98, 2.80, 2.77 (controls 1 of 9). The variant EGESLRYYPAN / GKNNRPS / SSRDSSGFQVF gave 1.03, 0.88, 0.53 (controls 5 of 9). For EGDSLRYYQKN / GMNNRPS / SSRDSSGFQVF, the assay gave 2.77, 2.56, 2.02 (controls 4 of 9). The variant EGDYLRYYHAN / GKNNRPS / SSRDSSGFQVF showed 1.90, 1.77, 1.33 (controls 7 of 9). With EGDSLRYYQAN / IKNNRPS / SSSDSSGFQVF the result was 5.69, 5.70, 4.33 (controls 6 of 9). The variant EGDELRYYSAN / GKNNRPS / SSRDSSWFQVF showed 3.97, 3.34, 3.44 (controls 1 of 9). With EGDSLRYYNAN / GKNNRPS / DPRDSSGFQVF the result was 4.51, 5.72, nd (controls 2 of 9).

The variant EGDSLRYYNAN / GKNNRPS / SSRDSSGFQWF showed 1.50, 1.35, 0.96 (controls 6 of 9). With EGDSLRYYHAN / GKNNRPD / SSRDSSMFQVF the result was 2.49, 3.06, nd (controls 2 of 9). With EGDSLRYDEAN / GKNNRPS / SSRDNSGFQVF the result was 2.41, 2.93, 2.55 (controls 3 of 9). With IGDSLRYYEAN / GKNNRPS / SSLDSSGFQVF the result was 2.18, 1.81, 1.50 (controls 3 of 9). With EGDSLRYYRAN / GRNNRPS / SSRDSSGWQVF the result was 2.78, 2.94, nd (controls 2 of 9). With EGDSLRGYNMN / GKNNRPS / SSRDSSGFQVF the result was 0.72, 0.70, -0.28 (controls 1 of 9). With EADSLRYYEAN / GYNNRPS / SSRDSSGFQVF the result was 4.29, 4.03, nd (controls 0 of 9). The variant EGDSLRYYEAN / GKANRPS / SSRDGSGFQVF gave 2.66, 2.72, 1.90 (controls 4 of 9).

The variant EGDSFRYYQAN / GKNNRPS / SSRDSSGFQVF showed 1.92, 1.81, 1.81 (controls 2 of 9). The variant EGDSGRYYWAN / GKNNRPD / SSRDSSGFQVF gave 3.08, 3.13, 2.58 (controls 2 of 9). The variant EGDSLRIYVAN / GKNNRPS / ESRDSSGFQVF showed nd, 4.66, nd (controls 3 of 9). The variant EGDSLRYDRAN / GKNNRPS / SSRDSSGFQVF gave 2.11, 2.47, 2.01 (controls 1 of 9). The variant MGDSLRYYRAL / GKNNRPS / SSRDSSGFQVF showed 3.50, nd, nd (controls 1 of 9). The variant EGDSLRYYMAN / GKNNRPS / SSFDRSGFQVF showed 2.11, 2.05, 1.57 (controls 0 of 9). For EGDSVRYYEAN / GKNNRNS / SSRDSSGFQVF, the assay gave 2.85, 1.95, 1.71 (controls 3 of 9). The variant EGDSLRYYPAN / GKNNYPS / SSRDSSGFQVF gave 2.02, 2.36, 2.04 (controls 4 of 9).

The variant EGDSLCYYVAN / GKHNRPS / SSRDSSGFQVF gave 3.87, 4.80, nd (controls 2 of 9). The variant EGDSLRYYLAT / GKNNRPS / SSRDSSGFMVF showed nd, nd, nd (controls 1 of 9). The variant LGDSLRYYQAN / GKNKRPS / SSRDSSGFQVF gave 2.67, 2.51, 2.43 (controls 5 of 9). With EGDSLWYYWAN / KKNNRPS / SSRDSSGFQVF the result was nd, 3.65, nd (controls 5 of 9). For EGDSLRYYEAN / GKNNRPR / SSRDSSNFQVF, the assay gave nd, 3.25, nd (controls 0 of 9). The variant EGDSLRYYAAN / GKNNRPS / SSRDPSGFQVF gave 2.40, 2.06, 1.67 (controls 0 of 9). The variant EGDSLRYYGAN / GANNRPS / SSRDSSYFQVF showed 2.40, 1.81, 1.18 (controls 6 of 9). The variant EGDSHRYYTAN / GKNNRPS / SSRDSSGFQVF showed 2.57, 2.45, 1.83 (controls 5 of 9).

For QGDSLRYYKAN / GKNNRPS / SRRDSSGFQVF, the assay gave 2.82, 2.70, 2.92 (controls 5 of 9). With EGDSLRYYIAN / GKNNRPS / SSRDSSGNQVF the result was nd, 2.96, 3.21 (controls 1 of 9). The variant EGDSLRYYCAN / GGNNRPS / SSRDSSGFQVF showed 1.16, 1.18, 1.49 (controls 1 of 9). The variant EGDSLRYYPAN / GKNNRPS / SSRDSSTAQVF gave nd, 3.83, nd (controls 2 of 9).

Picked from the list: the 5 lowest averages where every replicate gave a value.

For EGDSLRGYNMN / GKNNRPS / SSRDSSGFQVF, the assay gave 0.72, 0.70, -0.28 (controls 1 of 9).
For EGESLRYYPAN / GKNNRPS / SSRDSSGFQVF, the assay gave 1.03, 0.88, 0.53 (controls 5 of 9).
For EGDSLRYYNAN / GKNNRPS / SSRDSSGFQWF, the assay gave 1.50, 1.35, 0.96 (controls 6 of 9).
For EGDSLRYYCAN / GGNNRPS / SSRDSSGFQVF, the assay gave 1.16, 1.18, 1.49 (controls 1 of 9).
For EGDYLRYYHAN / GKNNRPS / SSRDSSGFQVF, the assay gave 1.90, 1.77, 1.33 (controls 7 of 9).

For reference, the parent read 2.31 as the reference entry and 2.25 as a member of this library.
Background: pairings of library AAYL52 with three empty control strains gave a value in 28% of cases (median 3.91, 5th percentile 2.90). Values in that range, when seen in few replicates, are hard to tell from nonspecific mating. The control count says in how many pairings with the empty strains this scFv gave a signal.

Reference: Engelhart et al. 2022, doi:10.1038/s41597-022-01779-4. File: FLAb, binding data.